Measurements taken from patent US20150010932A1, “METHODS FOR ASSAYING PROTEIN-PROTEIN INTERACTIONS” (Salk Institute for Biological Studies, priority 2013, published 2015).

Sequences of proteins named here, by UniProt entry; tags and fusion partners are left off. Residues count along the entry.
UniProt Q00987, 2-108 limits assumed: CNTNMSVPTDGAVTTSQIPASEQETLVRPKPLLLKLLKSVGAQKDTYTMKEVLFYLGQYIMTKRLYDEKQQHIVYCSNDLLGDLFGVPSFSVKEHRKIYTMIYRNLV
UniProt O15151, 2-111 limits assumed: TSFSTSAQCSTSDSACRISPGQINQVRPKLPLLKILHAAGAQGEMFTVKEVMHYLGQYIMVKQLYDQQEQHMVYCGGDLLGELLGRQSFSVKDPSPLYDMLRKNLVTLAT

Experiments:
[1] = biological target: T1, p53-Mdm2 complexes (Homo sapiens, UniProt Q00987); assay: Real-time BiLC (ReBiL) assay in living cells, p53-Mdm2 reporter (Saos-2 134-385); format: cell-based
[2] = biological target: T2, p53-Mdm4 complexes (Homo sapiens, UniProt O15151); assay: Real-time BiLC (ReBiL) assay in living cells, p53-Mdm4 reporter (Saos-2 134-354); settings: Saos-2 134-354, doxycycline withdrawal; for Disruption of pre-formed p53-Mdm4 complexes in living cells, 10% FBS: SAH peptide protocol, 10% FBS media
[3] = biological target: T1, p53-Mdm2 complexes; assay: BiLC assay using cell lysates, p53-Mdm2; format: biochemical
[4] = biological target: T2, p53-Mdm4 complexes; assay: BiLC assay using cell lysates, p53-Mdm4; format: biochemical
[5] = system: Normal human fibroblasts (WS1 cells); assay: Lactate dehydrogenase (LDH) leakage assay, WS1 fibroblasts; format: cell-based; settings: 25 μM and 10 μM, 6 hours, no serum
[6] = system: Saos-2 cells; assay: Lactate dehydrogenase (LDH) leakage assay, Saos-2 cells; settings: 25 μM and 10 μM, 6 hours, no serum

SMILES: CC(=O)N[C@@H](CC(C)C)C(=O)N[C@H](C(=O)N[C@@H](Cc1ccccc1)C(=O)N[C@]1(C)CCCCCCC=CCCC[C@@](C)(C(=O)N[C@@H](CO)C(=O)N[C@@H](C)C(=O)N[C@@H](C)C(N)=O)NC(=O)[C@H](CC2CCC2)NC(=O)[C@H](CCC(N)=O)NC(=O)[C@H](C)NC(=O)[C@H](Cc2c[nH]c3ccccc23)NC(=O)[C@H](Cc2ccc(O)cc2)NC(=O)[C@H](CCC(=O)O)NC1=O)[C@@H](C)O
- Disruption of pre-formed p53-Mdm2 complexes in living cells, 10% FBS ([1]; Saos-2 134-385, doxycycline withdrawal, SAH peptide protocol, 10% FBS media): reduced the effectiveness
- Disruption of pre-formed p53-Mdm2 complexes in living cells, without serum ([1]; Saos-2 134-385, doxycycline withdrawal, media lacking serum): increased activity
- Time to reach full p53-Mdm2 inhibition ([1]; living Saos-2 cells, 10 μM, 10% FBS (FIG. 3A, 3B)): 4 h
- Disruption of pre-formed p53-Mdm4 complexes in living cells, 10% FBS [2]: only marginal activity
- Disruption of pre-formed p53-Mdm4 complexes in living cells, 10% FBS ([2]; listed as ATSP-704125): reduced the effectiveness
- Disruption of pre-formed p53-Mdm4 complexes in living cells, without serum ([2]; media lacking serum): increased activity
- p53-Mdm2 disruption in lysate BiLC assay, 10% FBS ([3]; 10% FBS added): did not reduce the potency
- p53-Mdm2 disruption in lysate BiLC assay, without FBS ([3]; no FBS): potent
- p53-Mdm4 disruption in lysate BiLC assay, 10% FBS ([4]; 10% FBS added): did not reduce the potency
- p53-Mdm4 disruption in lysate BiLC assay, without FBS ([4]; no FBS): potent
- LDH leakage (cell membrane damage), absence of serum [5]: cause LDH leakage
- LDH leakage (cell membrane damage), absence of serum [6]: cause LDH leakage
